The target of this experiment is Serine/threonine-protein kinase mTOR (Homo sapiens) (UniProt P42345). Kind of experiment: binders of mTOR FRB domain, biophysical, NMR (AID 1648). The following applies: NMR binding to FRB domain, chemical shift.

Chains of the proteins cited; added tags and fusions are not shown. Residues count along the entry.
UniProt P42345, 2015-2114: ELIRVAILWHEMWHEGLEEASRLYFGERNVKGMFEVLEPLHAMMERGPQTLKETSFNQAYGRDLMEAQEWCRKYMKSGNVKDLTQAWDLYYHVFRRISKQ

SMILES strings stand for the structures. Activity calls are given as the source filed them. How the calls were made is not given here. Where only a bound is given, the exact number is not on record here.

Our source for the Kd values is PubChem BioAssay AID1648 (Sanford-Burnham Center for Chemical Genomics, 2009).

A word on the Kd: it is the free concentration of one partner at which half of the binding sites on the other are occupied at equilibrium, for simple one-to-one binding.

For the molecule `OC1CN2CCC1CC2` (configuration not stated), the Kd was inactive: > 4 mM.
Regarding `CP(N)(=O)Oc1ccc(Cl)cc1` (configuration not stated), the Kd was inactive: > 4 mM.
